This note sets out measurements from PubChem BioAssay AID772 (SRMLSC, 2007).

This is a selection; strong and weak results do not stand in their true shares. Calls of active or inactive are those of the source.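 Rule for the calls: active = growth inhibition above 90%, meaning viable cell count cut by more than 90% versus vehicle controls; inactive = growth inhibition below 90%.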

The nature of the assay: HT29 colon tumor cell growth inhibition, primary screen, imaging, high content imaging, 72 h, CellTiter-Glo (AID 772). The conditions noted are these: HCS imaging cell count, at 10 µM, stronger effect = higher value.
Consider `Cc1ccc(OCC(=O)OC2CN3CCC2CC3)cc1` (configuration not stated), for which the growth inhibition was inactive: -10.6%.

Consider `Cc1cccc(OCC(=O)OC2CN3CCC2CC3)c1` (configuration not stated), for which the growth inhibition was inactive: 1.25%.
